What was measured:
Dihydrofolate reductase = biological target: T1, Dihydrofolate reductase (Pneumocystis carinii, UniProt P16184)
T1 sequence (P16184 whole entry): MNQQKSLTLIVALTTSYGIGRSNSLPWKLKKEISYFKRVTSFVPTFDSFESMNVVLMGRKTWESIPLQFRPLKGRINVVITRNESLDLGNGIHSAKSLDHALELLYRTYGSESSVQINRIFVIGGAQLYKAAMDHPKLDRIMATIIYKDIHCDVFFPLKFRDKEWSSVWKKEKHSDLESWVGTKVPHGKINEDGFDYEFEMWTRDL

[1] = biological target: T2, Bifunctional dihydrofolate reductase-thymidylate synthase (Toxoplasma gondii, UniProt Q07422)
T2 sequence (Q07422 whole entry): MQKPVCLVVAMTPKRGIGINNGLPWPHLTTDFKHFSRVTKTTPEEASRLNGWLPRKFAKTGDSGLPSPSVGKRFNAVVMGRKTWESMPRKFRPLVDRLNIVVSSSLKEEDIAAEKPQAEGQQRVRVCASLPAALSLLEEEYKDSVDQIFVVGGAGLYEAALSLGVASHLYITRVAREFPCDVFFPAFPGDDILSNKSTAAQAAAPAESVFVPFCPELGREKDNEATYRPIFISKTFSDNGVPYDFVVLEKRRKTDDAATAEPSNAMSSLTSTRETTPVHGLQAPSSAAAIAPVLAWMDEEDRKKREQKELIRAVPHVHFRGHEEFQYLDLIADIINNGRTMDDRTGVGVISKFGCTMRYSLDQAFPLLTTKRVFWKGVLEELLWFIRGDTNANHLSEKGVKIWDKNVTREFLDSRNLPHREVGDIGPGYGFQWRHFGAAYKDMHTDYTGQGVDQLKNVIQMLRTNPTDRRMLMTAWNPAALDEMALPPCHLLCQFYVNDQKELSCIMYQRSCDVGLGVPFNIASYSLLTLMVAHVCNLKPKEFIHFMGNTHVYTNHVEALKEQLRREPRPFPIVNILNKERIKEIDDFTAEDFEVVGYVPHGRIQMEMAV

IC50 (Dihydrofolate reductase) [µM]	SMILES	IC50 [1] [µM]
2	COc1cc(NCc2cnc3nc(N)nc(N)c3c2)cc(OC)c1OC	–
30	Cc1ccc(SCc2cnc3nc(N)nc(N)c3n2)cc1	–
–	COc1cc(NCc2cnc3nc(N)nc(N)c3c2C)cc(OC)c1OC	0.0027
97	Nc1nc(N)c2nc(CCc3cccc4ccccc34)cnc2n1	–

Source: ChEMBL document CHEMBL1129525 (J Med Chem, 1996)
